Each structure is given as a SMILES string.

Protein sequences, listed by entry. Tags and fused reporters are not part of them. Lines headed by an entry give the natural chain unless they say otherwise; changes in a name come on top.
UniProt Q12809: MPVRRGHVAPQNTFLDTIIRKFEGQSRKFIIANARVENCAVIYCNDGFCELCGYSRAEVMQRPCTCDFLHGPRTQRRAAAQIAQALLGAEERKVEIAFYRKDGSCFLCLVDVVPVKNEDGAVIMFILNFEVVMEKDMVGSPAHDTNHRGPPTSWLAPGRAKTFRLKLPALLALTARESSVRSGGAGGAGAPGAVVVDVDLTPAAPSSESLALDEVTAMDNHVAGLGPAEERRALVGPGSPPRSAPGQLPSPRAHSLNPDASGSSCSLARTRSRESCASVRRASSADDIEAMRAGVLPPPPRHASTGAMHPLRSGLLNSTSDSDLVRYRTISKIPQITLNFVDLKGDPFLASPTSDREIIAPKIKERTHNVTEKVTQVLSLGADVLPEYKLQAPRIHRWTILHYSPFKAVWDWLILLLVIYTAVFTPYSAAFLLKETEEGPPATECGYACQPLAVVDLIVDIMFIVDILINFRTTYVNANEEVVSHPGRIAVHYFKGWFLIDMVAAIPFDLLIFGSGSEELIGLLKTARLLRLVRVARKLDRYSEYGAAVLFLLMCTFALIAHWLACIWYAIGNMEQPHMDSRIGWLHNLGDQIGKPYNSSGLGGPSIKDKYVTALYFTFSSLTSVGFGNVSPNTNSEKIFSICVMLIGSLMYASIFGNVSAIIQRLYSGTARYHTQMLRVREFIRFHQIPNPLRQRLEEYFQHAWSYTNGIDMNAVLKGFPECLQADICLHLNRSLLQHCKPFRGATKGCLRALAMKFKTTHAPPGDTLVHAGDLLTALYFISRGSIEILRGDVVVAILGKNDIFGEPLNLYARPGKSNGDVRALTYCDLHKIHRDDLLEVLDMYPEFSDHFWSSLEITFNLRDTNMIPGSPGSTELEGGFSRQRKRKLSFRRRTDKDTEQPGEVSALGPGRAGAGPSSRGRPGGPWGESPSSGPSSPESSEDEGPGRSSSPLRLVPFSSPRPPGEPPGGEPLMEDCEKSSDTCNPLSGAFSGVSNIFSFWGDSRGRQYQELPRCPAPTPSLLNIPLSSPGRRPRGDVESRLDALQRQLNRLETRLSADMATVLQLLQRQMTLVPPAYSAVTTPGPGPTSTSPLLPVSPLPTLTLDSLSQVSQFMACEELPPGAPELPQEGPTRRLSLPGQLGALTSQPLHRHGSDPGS

Consider one compound from ChEMBL document CHEMBL3400138, “Synthesis of 3-azabicyclo[3.2.2]nonanes and their antiprotozoal activities” (Bioorg Med Chem Lett, 2015).

For this assay, the target named is Voltage-gated inwardly rectifying potassium channel KCNH2 (Homo sapiens, UniProt Q12809). The assay can be described thus: Inhibition of human ERG expressed in HEK293 cells assessed as reduction in tail current at membrane potential of +20 mV. In kind it is cell-based.

As to `O[C@@H](c1cc(C(F)(F)F)nc2c(C(F)(F)F)cccc12)[C@H]1CCCCN1` (relative stereo) [(S,R)-MEFLOQUINE], the half-maximal inhibitory concentration (IC50) worked out at 2600 nM.

As a reminder, the IC50 is the concentration that gives 50% inhibition.
